The target of one test is Mu-type opioid receptor (Rattus norvegicus, UniProt P33535). As to the kind of experiment: Displacement of [3H]diprenorphine from rat mu opioid receptor expressed in HEK293 cells.
In test [1] the target is Delta-type opioid receptor (Mus musculus, UniProt P32300). The experiment in a line: Displacement of [3H]diprenorphine from mouse delta opioid receptor expressed in HEK293 cells.

Chains of the proteins cited; added tags and fusions are not shown.
UniProt P33535, whole entry, looked up: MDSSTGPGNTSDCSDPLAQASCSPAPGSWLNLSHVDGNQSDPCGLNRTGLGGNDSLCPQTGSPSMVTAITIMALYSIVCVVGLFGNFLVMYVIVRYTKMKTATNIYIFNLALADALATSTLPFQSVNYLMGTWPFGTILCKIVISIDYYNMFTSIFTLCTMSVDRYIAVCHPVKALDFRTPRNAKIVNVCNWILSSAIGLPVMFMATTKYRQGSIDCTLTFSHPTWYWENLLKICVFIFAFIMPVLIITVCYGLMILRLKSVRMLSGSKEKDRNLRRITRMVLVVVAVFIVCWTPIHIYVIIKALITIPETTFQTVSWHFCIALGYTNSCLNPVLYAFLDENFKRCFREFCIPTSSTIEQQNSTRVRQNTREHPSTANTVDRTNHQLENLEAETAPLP
UniProt P32300, whole entry, looked up: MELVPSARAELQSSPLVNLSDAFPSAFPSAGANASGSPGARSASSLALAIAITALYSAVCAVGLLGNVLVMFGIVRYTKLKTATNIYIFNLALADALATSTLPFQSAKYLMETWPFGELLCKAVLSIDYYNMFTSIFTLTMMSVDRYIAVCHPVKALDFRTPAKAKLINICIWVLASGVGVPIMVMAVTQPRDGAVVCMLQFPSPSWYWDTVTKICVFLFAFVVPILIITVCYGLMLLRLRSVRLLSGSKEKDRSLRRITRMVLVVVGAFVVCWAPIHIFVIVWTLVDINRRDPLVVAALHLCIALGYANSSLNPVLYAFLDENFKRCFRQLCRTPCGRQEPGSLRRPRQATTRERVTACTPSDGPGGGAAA

As for `COC(=O)[C@@H]1C[C@H](OC(C)=O)C(=O)[C@H]2[C@@]1(C)CC[C@H]1C(=O)O[C@H](c3ccoc3)C[C@]21C` [SALVINORIN A], the inhibitory constant (Ki) (on Mu-type opioid receptor; in test [1]) was over 25 µM each time.

(Values after ChEMBL document CHEMBL1142277, “Toward a structure-based model of salvinorin A recognition of the kappa-opioid receptor” (J Med Chem, 2008).)
